Assay results taken from patent US20100137206A1, “NOVEL LIGAND GUIDED BLOCK COPOLYMERS FOR TARGETED DRUG DELIVERY” (priority 2006, published 2010).

Tests used:
[1] = Average diameter and size distribution of micelles by dynamic light scattering; assay type: physicochemical; conditions: Empty micelles
Description: Micellization was achieved by dissolving each block copolymer (20 mg) in acetone (0.8 mL) and drop-wise addition (˜1 drop/15 sec) of polymer solution to doubly distilled water (5 mL) under moderate stirring at 25° C., followed by evaporation of acetone under vacuum. Average diameter and size distribution of prepared micelles were estimated by dynamic light scattering (DLS) using Malvern Zetasizer 3000 at a polymer concentration of 4 mg/mL.
Polymeric micelles containing physically loaded DOX were prepared by co-solvent evaporation method. In brief, 10 mg of acetal-PEO-b-PCL, acetal-PEO-b-PCBCL, acetal-PEO-b-PCCL, GRGDS-PEO-b-PCL GRGDS-PEO-b-PBCL or GRGDS-PEO-b-PCCL and 2 mg of free DOX were dissolved in acetone (2 mL) in a glass vial followed by addition of 3.0 equivalent of triethylamine (TEA). This solution was added dropwise to pure water (6 mL) under moderate stirring at 25° C. The micellar solution was left stirring overnight, allowing evaporation of acetone. […] DOX-loaded micellar solution was then dialyzed against a large quantity of water for 8 h using a pre-swollen semi-permeable membrane (Spectra/Pro 6, molecular weight cut-off 3000, SECTRUM, Houston, USA) to remove free DOX. The concentration of loaded DOX was quantified photometrically at 485 nm after redissolving the freeze-dried sample in a DMSO-CHCl3 mixture (1:1, v/v).

[2] = Stability of the micellar solution in water (appreciable aggregation or precipitation); conditions: Empty micelles

Question: Which “Average diameter (nm)” value [1] does the source give for “doxorubicin-conjugated acetal polyethylene oxide)-block-poly(caprolactone) [Acetal-PEO-b-PCL(DOX)]” here?
Answer: 90.4 nm

Question: What about the Polydispersity [1] of the same substance?
Answer: 0.34

Question: What about the Stability [2] of the same substance?
Answer: >1 month
